Laboratory results: patent publication US20240327356A1, “PYRIMIDINE BASED RAS MODULATORS AND USES THEREOF” (QUANTA THERAPEUTICS, INC., priority 2021, published 2024)
pIC50: −log10 of the molar value.

System: Phospho-ERK (Thr202/Tyr204) in MiaPaCa-2 cells
Experiment: pERK inhibition in MiaPaca-2 cell line (HTRF)
Conditions: read-out: MiaPaca-2 pERK IC50, 1 hour incubation with compound
Method: MiaPaCa-2 cells (ATCC CRL-1420) were cultured in high glucose DMEM (Gibco 11965092) containing 10% fetal bovine serum (Gibco 1993708) and 1× Penicillin/Streptomycin, at 37° C. in a humid atmosphere of 5% CO2 in the air. Cells were plated in tissue-culture treated 96-well plates at a density of 10,000 cells/well and allowed to attach for 16 hours. The medium was then removed, and diluted compounds were added in a final concentration of 0.5% DMSO. After 1 hour of incubation, cells were lysed by the lysis buffer supplied with the Phospho-ERK (Thr202/Tyr204) cellular HTRF kit (Cisbio 64ERKPEH) and transferred to a 384-well low-volume white plate (PerkinElmer 6008280). The cell lysates were treated with the detection reagents supplied with the HTRF kit for 4 hours at ambient temperature in darkness. Two fluorescence intensities at the wavelengths (665 and 620 nm) were measured by the Envision plate reader (Perkin Elmer), and the data were processed and fitted to a 4-parameter logistic model for IC50 calculation (GraphPad Prism 9).

Compound: Cc1ccc(-c2ncc(CNC(=O)C3(F)CC3)c(N3[C@@H]4CC[C@H]3C[C@H](N)C4)n2)cc1Cl
- pIC50: 5.00 to 6.00
